# According to PubChem BioAssay AID2766 (Sanford-Burnham Center for Chemical Genomics, 2010):
# Protein sequences, listed by entry. Tags and fused reporters are not part of them. Lines headed by an entry give the natural chain unless they say otherwise; changes in a name come on top.
# UniProt P35414: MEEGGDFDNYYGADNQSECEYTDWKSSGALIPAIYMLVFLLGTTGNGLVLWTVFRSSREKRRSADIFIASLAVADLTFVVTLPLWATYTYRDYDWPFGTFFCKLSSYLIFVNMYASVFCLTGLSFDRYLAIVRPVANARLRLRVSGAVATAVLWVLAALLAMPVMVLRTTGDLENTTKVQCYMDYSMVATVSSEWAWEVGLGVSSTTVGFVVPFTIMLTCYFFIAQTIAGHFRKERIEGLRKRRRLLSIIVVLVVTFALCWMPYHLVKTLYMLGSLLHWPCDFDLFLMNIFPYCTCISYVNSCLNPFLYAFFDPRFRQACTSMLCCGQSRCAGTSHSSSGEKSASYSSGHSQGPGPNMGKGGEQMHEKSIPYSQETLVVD
# This is a selection; strong and weak results do not stand in their true shares. Active and inactive are the calls of the source. Rule as the data show it: active = inhibition above about 50%; inactive = the rest.
# Target: Apelin receptor (Homo sapiens) (UniProt P35414)
# Test: APJ antagonists blocking beta-arrestin recruitment, confirmation, cell-based, luminescence, single concentration, uHTS hits (AID 2766)
# Conditions: antagonist mode, at 20 µM, active compounds read high
smiles,measurement,value
Cc1ccnc(SCc2cc(=O)c(OC(=O)c3ccc(Cl)c([N+](=O)[O-])c3)co2)n1,inhibition,active: 71.6%
